# Data: patent US20240181039A1, “INFLUENZA VACCINE FOR INTRANASAL ADMINISTRATION” (priority 2021, published 2024)
# Tested on: M-like cells (Caco-2+Raji B)
# Assay: Transcytosis with TGDK not linked (free TGDK), M-like cells
# Assay type: cell-based
# Conditions: 22.9 μg HA whole inactivated vaccine, free TGDK 1.1 or 11.1 μM; qPCR after 1 hour
structure (smiles),measurement,value
"NCCNC(=O)[C@H](CCCCNC(=O)[C@H](CCCCNC(=O)c1cc(O)c(O)c(O)c1)NC(=O)c1cc(O)c(O)c(O)c1)NC(=O)[C@H](CCCCNC(=O)c1cc(O)c(O)c(O)c1)NC(=O)c1cc(O)c(O)c(O)c1 [TGDK, N2, N6-bis [N2, N6-bis (3,4,5-trihydroxybenzoyl)-lysyl]-N-(2-aminoethyl)-lysine amide]",transfer of the vaccine antigen to the upper chamber,inhibited
